Here are results for one molecule from ChEMBL document CHEMBL3120114, “Synthesis and evaluation of new coumarin derivatives as potential atypical antipsychotics” (Eur J Med Chem, 2014).

Chains of the proteins cited; added tags and fusions are not shown.
UniProt P61169, whole entry: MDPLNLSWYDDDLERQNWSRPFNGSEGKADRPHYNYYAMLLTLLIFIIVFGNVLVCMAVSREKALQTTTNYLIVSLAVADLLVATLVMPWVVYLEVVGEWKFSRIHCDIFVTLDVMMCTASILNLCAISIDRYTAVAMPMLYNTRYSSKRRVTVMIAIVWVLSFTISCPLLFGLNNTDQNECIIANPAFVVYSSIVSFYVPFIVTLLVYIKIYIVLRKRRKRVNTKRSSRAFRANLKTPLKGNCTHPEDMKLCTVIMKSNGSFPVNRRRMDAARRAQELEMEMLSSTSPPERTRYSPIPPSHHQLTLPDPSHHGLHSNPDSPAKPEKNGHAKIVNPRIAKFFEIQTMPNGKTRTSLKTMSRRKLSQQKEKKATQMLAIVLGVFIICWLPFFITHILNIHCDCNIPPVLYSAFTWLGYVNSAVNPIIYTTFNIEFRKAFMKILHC

The assay concerns the target D(2) dopamine receptor (Rattus norvegicus, UniProt P61169). Description: Displacement of [3H]spiperone from dopamine D2 receptor in Sprague-Dawley rat striatum homogenate after 30 mins by liquid scintillation counting.

For `O=c1oc2cc(OCCCCN3CCN(c4nsc5ccccc45)CC3)ccc2c2c1CCC2`, affinity was put at a Ki of 522 nM.
